Test: Comparative oral versus nasal pharmacokinetics of midazolam in dogs (plasma, GC assay)
Type: in vivo, beagle dogs
Conditions: nasal vs oral
Experimental: The efficacy of oral versus nasal administration of midazolam was examined using the methodology of Example 1, but modified to allow at least three weeks between studies.
Oral Administration Studies: Five mg equivalent of midazolam free base solution was given to each of four dogs with 50 ml of water. […] The plasma samples were stored frozen until GC assay for midazolam.
Nasal Administration Studies: 55.6 milligrams of midazolam HCl powder was dissolved in 4 ml of distilled water. […] Air bubbles generated during mixing were removed by centrifugation. The pH of the solution was 3.62.
Midazolam solution was sprayed, using a meter dose inhaler into both nostrils of the dogs. The dose given to each dog was 7.85, 7.89, 7.22, 5.61 mg free base. […] The plasma samples were frozen until GC assay for midazolam.
GC Assay--for extraction, 0.5 ml of plasma, 100 μl of internal standard (100 ng/ml flurazepam in methanol) and 0.5 ml of 2N sodium hydroxide were vortexed for 5 seconds. Five ml of hexane was then added and the mixture was vortexed for one min. and centrifuges for 4 minutes. […] Fifty μl of hexane/isoamyl alcohol (80:20) was used for reconstitution.
Midazolam in plasma was assayed by a Hewlett Packard model 5830A GC-EC. […] The temperatures for column, injector port and detector were 250°, 310° and 310° C., respectively. The flow rate for argon/methane (95:5) gas was 33 ml/min.

Question: For `Cc1ncc2n1-c1ccc(Cl)cc1C(c1ccccc1F)=NC2` [midazolam], which “Bioavailability after nasal versus oral administration” value is on record?
Answer: significant increase in bioavailability

Reference: USRE36744E, “Nasal administration of benzodiazepine hypnotics” (Ribogene, Inc., priority 1994, dated 2000)
